Laboratory results taken from patent US7402706B2, “Polyisoprenylated benzophenones and their isomers as inhibitors of histone acetyltransferases and uses thereof” (priority 2003, dated 2008).

Protein sequences, listed by entry. Tags and fused reporters are not part of them.
UniProt Q09472, whole entry: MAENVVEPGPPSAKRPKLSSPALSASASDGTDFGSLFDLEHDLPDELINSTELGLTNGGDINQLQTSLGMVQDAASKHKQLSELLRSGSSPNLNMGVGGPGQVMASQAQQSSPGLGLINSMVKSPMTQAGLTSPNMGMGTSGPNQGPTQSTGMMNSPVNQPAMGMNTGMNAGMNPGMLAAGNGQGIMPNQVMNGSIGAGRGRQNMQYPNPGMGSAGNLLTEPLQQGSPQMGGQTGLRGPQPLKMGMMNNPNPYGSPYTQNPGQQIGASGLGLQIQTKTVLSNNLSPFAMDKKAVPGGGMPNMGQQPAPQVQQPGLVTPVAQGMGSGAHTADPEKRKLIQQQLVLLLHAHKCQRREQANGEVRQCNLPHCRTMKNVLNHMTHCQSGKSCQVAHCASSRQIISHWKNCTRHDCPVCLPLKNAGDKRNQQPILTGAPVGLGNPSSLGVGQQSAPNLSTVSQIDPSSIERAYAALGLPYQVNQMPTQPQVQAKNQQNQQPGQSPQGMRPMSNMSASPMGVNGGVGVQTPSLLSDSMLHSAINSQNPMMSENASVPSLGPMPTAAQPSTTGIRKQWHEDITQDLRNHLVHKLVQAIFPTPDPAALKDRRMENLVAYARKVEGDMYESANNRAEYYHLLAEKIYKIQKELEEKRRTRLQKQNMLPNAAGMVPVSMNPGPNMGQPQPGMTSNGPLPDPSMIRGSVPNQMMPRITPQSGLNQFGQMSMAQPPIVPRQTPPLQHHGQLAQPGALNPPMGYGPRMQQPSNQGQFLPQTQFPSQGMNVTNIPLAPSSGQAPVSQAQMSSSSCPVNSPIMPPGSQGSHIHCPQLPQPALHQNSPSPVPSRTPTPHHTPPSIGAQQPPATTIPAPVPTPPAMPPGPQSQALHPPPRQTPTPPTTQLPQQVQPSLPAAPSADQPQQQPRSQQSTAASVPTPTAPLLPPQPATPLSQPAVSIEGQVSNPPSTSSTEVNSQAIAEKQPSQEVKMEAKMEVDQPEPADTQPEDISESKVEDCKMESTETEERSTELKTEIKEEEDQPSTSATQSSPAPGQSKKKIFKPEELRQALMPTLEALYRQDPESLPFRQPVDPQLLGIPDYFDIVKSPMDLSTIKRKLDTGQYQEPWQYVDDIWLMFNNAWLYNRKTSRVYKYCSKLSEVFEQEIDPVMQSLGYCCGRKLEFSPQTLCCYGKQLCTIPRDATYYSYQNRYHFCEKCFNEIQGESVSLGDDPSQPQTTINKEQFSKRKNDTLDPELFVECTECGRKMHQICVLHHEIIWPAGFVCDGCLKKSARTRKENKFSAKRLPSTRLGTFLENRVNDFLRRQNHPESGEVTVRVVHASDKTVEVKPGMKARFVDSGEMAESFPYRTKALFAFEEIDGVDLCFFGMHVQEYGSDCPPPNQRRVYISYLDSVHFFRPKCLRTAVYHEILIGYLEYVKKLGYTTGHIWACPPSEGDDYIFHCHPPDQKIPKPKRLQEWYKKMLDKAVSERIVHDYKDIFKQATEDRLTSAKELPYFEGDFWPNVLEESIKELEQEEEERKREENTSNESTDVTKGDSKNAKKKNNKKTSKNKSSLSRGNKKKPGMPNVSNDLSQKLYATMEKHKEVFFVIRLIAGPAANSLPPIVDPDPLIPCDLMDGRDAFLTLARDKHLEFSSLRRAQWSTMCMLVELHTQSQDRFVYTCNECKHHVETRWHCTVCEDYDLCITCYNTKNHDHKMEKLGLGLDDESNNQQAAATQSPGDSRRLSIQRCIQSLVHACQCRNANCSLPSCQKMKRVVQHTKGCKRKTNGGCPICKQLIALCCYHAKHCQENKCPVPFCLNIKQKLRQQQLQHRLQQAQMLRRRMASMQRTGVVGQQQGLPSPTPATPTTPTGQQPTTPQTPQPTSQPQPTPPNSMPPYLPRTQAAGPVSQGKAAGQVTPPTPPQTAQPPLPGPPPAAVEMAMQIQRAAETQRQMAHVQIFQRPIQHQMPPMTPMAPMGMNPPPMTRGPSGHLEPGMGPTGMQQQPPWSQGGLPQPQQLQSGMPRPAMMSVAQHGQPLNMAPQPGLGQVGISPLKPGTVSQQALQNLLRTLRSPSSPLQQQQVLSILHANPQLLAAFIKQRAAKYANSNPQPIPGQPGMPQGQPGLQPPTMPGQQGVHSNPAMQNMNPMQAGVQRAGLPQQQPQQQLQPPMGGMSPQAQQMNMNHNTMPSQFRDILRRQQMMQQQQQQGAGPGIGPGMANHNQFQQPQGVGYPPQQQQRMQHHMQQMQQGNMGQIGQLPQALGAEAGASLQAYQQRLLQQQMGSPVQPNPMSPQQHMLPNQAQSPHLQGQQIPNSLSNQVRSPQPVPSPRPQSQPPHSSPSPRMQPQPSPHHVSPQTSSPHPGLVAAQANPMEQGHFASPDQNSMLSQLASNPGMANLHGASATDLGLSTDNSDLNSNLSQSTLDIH

Target: p300 (Homo sapiens, UniProt Q09472)
Assay: Histone acetyl transferase (HAT) assay, p300
Assay type: biochemical

Q: Which results are given for “3-(3,4-Dihydroxy-benzoyl)-4-hydroxy-5-(2-isopropenyl-4-methyl -pent-3-enyl)-8,8-dimethyl-1-(3-methyl-but-2-enyl)-7-(4-methyl-pent-3-enyl) -bicyclo[3.3.1]non-3-ene-2,9-dione [garcinol]”?
A: overall type of inhibition of p300 (kinetic analysis): mixed type of inhibitor; p300 mediated acetylation of histone H3 (20 μM garcinol): could not abolish; [3H]-labelled histone H3 still detected (20 μM garcinol, SDS-PAGE and fluorography): 5-10%; type of inhibition of p300, changing concentration of core histones (constant [3H]-acetyl CoA): competitive inhibitor; type of inhibition of p300, changing concentration of acetyl CoA (constant core histones): uncompetitive type of inhibitor; IC50 (recombinant p300, HeLa core histones as substrate, filter binding, read-out: IC50 for p300 acetyltransferase activity): ~7 µM
